Test results: patent US12473332B2, “Modified peptides and associated methods of use” (Advanced Technologies For Novel Therapeutics, LLC, priority 2019, dated 2025)

Assay: MTT assay of ZaTa fragments, dimer and modified variants

KGRT[1Nal]TLC
anti-cell proliferative activity: sufficient to inhibit cell proliferation

Where no end group is shown, it is not given here. [ ]: non-standard residue; d: D form. 1Nal = N[C@@H](Cc1cccc2ccccc12)C(=O)O
